Assay results published in PubChem BioAssay (NCI).
Some results for these compounds are left out of this collection, so the calls shown say nothing about other tests.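 Following 48 hours of exposure in 96-well plates, responses at five concentrations were used to interpolate endpoints linearly. At the GI50, growth is halved. TGI denotes the concentration required for complete inhibition of growth.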

What was measured:
Experiment in all cases: growth of human tumour cells (NCI), 48 h
786-0 renal = system: 786-0 renal
A498 renal = system: A498 renal
A549 NSCLC = system: A549 NSCLC
ACHN renal = system: ACHN renal
BT-549 breast = system: BT-549 breast
CAKI-1 renal = system: CAKI-1 renal
CCRF-CEM leukemia = system: CCRF-CEM leukemia
COLO 205 colon = system: COLO 205 colon
DU-145 prostate = system: DU-145 prostate
EKVX NSCLC = system: EKVX NSCLC
HCC-2998 colon = system: HCC-2998 colon
HCT-116 colon = system: HCT-116 colon
HCT-15 colon = system: HCT-15 colon
HL-60(TB) leukemia = system: HL-60(TB) leukemia
HOP-62 NSCLC = system: HOP-62 NSCLC
HOP-92 NSCLC = system: HOP-92 NSCLC
HS 578T breast = system: HS 578T breast
HT29 colon = system: HT29 colon
IGROV1 ovarian = system: IGROV1 ovarian
K-562 leukemia = system: K-562 leukemia
KM12 colon = system: KM12 colon
LOX IMVI melanoma = system: LOX IMVI melanoma
M14 melanoma = system: M14 melanoma
MCF7 breast = system: MCF7 breast
MDA-MB-231 breast = system: MDA-MB-231 breast
MDA-MB-435 = system: MDA-MB-435
MDA-N = system: MDA-N
MOLT-4 leukemia = system: MOLT-4 leukemia

In the case of CC#CC(O)(C(=O)OC1CCN(C)CC1)C(C)C (stereo unspecified), the GI50 (786-0 renal) is reported as > 100 µM, the TGI (786-0 renal) is reported as > 100 µM and the GI50 (A498 renal) is reported as > 100 µM. For the same compound, the TGI (A498 renal) was > 100 µM, the GI50 (A549 NSCLC) was > 100 µM and the TGI (A549 NSCLC) was > 100 µM. The GI50 (ACHN renal) was > 100 µM, the TGI (ACHN renal) was > 100 µM and the GI50 (BT-549 breast) was > 100 µM. The TGI (BT-549 breast) was > 100 µM, the GI50 (CAKI-1 renal) was > 100 µM and the TGI (CAKI-1 renal) was > 100 µM. The GI50 (CCRF-CEM leukemia) was > 100 µM, the TGI (CCRF-CEM leukemia) was > 100 µM and the GI50 (COLO 205 colon) was > 100 µM. The TGI (COLO 205 colon) was > 100 µM, the GI50 (DU-145 prostate) was > 100 µM and the TGI (DU-145 prostate) was > 100 µM. For the same compound, the GI50 (EKVX NSCLC) was > 100 µM, the TGI (EKVX NSCLC) was > 100 µM and the GI50 (HCC-2998 colon) was > 100 µM. The TGI (HCC-2998 colon) was > 100 µM, the GI50 (HCT-116 colon) was > 100 µM and the TGI (HCT-116 colon) was > 100 µM. The GI50 (HCT-15 colon) was > 100 µM, the TGI (HCT-15 colon) was > 100 µM and the GI50 (HL-60(TB) leukemia) was > 100 µM. The TGI (HL-60(TB) leukemia) was > 100 µM, the GI50 (HOP-62 NSCLC) was > 100 µM and the TGI (HOP-62 NSCLC) was > 100 µM. The GI50 (HOP-92 NSCLC) was > 100 µM, the TGI (HOP-92 NSCLC) was > 100 µM and the GI50 (HS 578T breast) was > 100 µM. The TGI (HS 578T breast) was > 100 µM, the GI50 (HT29 colon) was > 100 µM and the TGI (HT29 colon) was > 100 µM. The GI50 (IGROV1 ovarian) was > 100 µM, the TGI (IGROV1 ovarian) was > 100 µM and the GI50 (K-562 leukemia) was > 100 µM. The TGI (K-562 leukemia) was > 100 µM, the GI50 (KM12 colon) was > 100 µM and the TGI (KM12 colon) was > 100 µM. For the same compound, the GI50 (LOX IMVI melanoma) was > 100 µM, the TGI (LOX IMVI melanoma) was > 100 µM and the GI50 (M14 melanoma) was > 100 µM. For the same compound, the TGI (M14 melanoma) was > 100 µM, the GI50 (MCF7 breast) was > 100 µM and the TGI (MCF7 breast) was > 100 µM. The GI50 (MDA-MB-231 breast) was > 100 µM, the TGI (MDA-MB-231 breast) was > 100 µM and the GI50 (MDA-MB-435) was > 100 µM. For the same compound, the TGI (MDA-MB-435) was > 100 µM, the GI50 (MDA-N) was > 100 µM and the TGI (MDA-N) was > 100 µM. The GI50 (MOLT-4 leukemia) was > 100 µM and the TGI (MOLT-4 leukemia) was > 100 µM.
